Consider 1 compound from patent publication US20230203095A1, “BIOLOGICAL PEPTIDE FOR TREATING LUNG DISEASES AND APPLICATION THEREOF” (SHANGHAI INSTITUTE OF PHARMACEUTICAL INDUSTRY CO., LTD., priority 2019, published 2023).

The nature of this data set: Plasma drug concentrations and pharmacokinetics after a single intravenous or subcutaneous injection of SIPI-G9 in SD rats. The conditions noted are these: for half-life: sc. How it is done: Routes: single back subcutaneous injection and single tail vein injection;
Orbital blood was collected at different time points before and after administration. […] High concentration samples were diluted with blank plasma.
Column: SHIM-PACK GISS C18 (2.1 × 100 mm, 1.9 µm); injection volume: 20 µL; mobile phase: phase A: 0.2% acetic acid in water; phase B: methanol, gradient elution (see Table 16 for details);
The ion source is electrospray ionization source (ESI); the drying gas (N2) temperature is 550° C.; the electrospray voltage is 5500 V; the detection method is positive ion detection; the scanning method is the selective reaction monitoring (MRM) method, and the scanning time is 0.15 s.
50 µL plasma was taken and 5 µL internal standard solution (DX07 (His-Leu-Glu-Thr-Glu-Leu-His) 100 ng/mL) was added. After that, 150 µL of methanol was added to precipitate proteins, then centrifuged at 13,000 rpm for 5 min, and 160 µL supernatant was taken and dried with 40° C. N2, then reconstituted with 75 µL of 0.1% formic acid aqueous solution.
Pharmacokinetic parameters were calculated using the non-compartmental model of DAS 2.0 software. Both Cmax and Tmax are measured values; AUC, T½, CL and Vz are calculated by DAS 2.0.

In general, bioavailability refers to the share of a dose that reaches the circulation, judged against a reference dose that is usually intravenous. In general, half-life refers to how long it takes for the measured level to halve. A higher half-life goes with slow decline.

“And” between values parts separate entries of the source, which are not always exact repeats. Equal values may be shown once.

In the case of `CC(=O)N[C@H]1C(OC[C@H](NC(=O)[C@@H](NC(=O)[C@H](Cc2ccc(O)cc2)NC(=O)[C@@H](NC(=O)[C@H](CCC(N)=O)NC(=O)CN)[C@@H](C)OC2O[C@H](CO)[C@@H](O)[C@H](O)[C@H]2NC(C)=O)[C@@H](C)O)C(=O)NCC(=O)O)O[C@H](CO)[C@@H](O)[C@@H]1O` (some centres unmarked) [SIPI-G9, GQT(Glc)YTS(Glc)G], the T1/2 (SIPI-G9 5 mg/kg s.c., SD rats, individual rats, 5 mg/kg) was 26.8 min and 25.7 min. For the same compound, for the setting “rat, in vivo”, the “Fa (absolute bioavailability)” value was found to be 82.7% and the bioavailability stood at 86.2%. This compound also came in with a half-life (rat, in vivo, 5 mg/kg, T1/2, Mean, SIPI-G9 5 mg/kg s.c., SD rats, n=3) of 27.1 min. Further, under “rat, in vivo, 5 mg/kg, T1/2, SIPI-G9 5 mg/kg s.c., SD rats, individual rats”, the half-life came to 28.8 min.
